From paper PMC4472506 (Nature chemical biology, 2015)

By UniProt entry, the sequences of proteins in these tests, tags left out. Residues count along the entry.
UniProt P11362, 22-822: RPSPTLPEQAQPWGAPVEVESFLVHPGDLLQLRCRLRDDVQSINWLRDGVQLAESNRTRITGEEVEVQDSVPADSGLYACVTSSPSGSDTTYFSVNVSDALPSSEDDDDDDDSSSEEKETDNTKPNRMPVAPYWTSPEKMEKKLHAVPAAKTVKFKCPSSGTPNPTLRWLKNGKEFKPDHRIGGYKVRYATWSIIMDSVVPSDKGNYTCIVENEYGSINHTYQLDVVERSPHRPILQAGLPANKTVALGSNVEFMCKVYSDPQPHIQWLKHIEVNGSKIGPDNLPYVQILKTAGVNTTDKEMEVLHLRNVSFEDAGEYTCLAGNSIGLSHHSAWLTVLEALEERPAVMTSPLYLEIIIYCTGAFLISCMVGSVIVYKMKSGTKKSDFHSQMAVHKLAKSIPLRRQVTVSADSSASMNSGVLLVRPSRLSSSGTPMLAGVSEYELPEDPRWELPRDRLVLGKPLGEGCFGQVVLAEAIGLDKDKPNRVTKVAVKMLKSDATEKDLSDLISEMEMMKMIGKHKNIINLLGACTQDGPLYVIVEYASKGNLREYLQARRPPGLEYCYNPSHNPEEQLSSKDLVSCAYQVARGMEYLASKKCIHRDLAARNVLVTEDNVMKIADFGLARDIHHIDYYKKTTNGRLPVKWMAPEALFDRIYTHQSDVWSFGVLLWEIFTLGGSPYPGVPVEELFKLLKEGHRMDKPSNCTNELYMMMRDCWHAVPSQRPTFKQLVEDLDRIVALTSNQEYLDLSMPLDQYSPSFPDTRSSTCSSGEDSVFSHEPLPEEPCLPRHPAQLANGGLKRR

Target: FGFR1 (Homo sapiens, UniProt P11362)
Assay: Biochemical residence time using fluorescence competition
Type: binding
Conditions: read-out: FGFR1 residence time τ

- residence time: 114 ± 24 min
Structure (SMILES): CCN1CCN(c2ccc(Nc3cc(N(C)C(=O)Nc4c(Cl)c(OC)cc(OC)c4Cl)ncn3)cc2)CC1 [BGJ398]
